{
  "sequences": {"note": "Protein sequences, listed by entry. Tags and fused reporters are not part of them. Residues count along the entry.", "UniProt P48061, 22-89 limits assumed": "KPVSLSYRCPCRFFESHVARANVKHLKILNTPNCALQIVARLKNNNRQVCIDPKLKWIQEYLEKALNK"},
  "source": "patent US20210162009A1",
  "about": "“CHEMOKINE VARIANTS AS IMMUNE STIMULANTS” (THE MEDICAL COLLEGE OF WISCONSIN, INC., priority 2017, published 2021)",
  "biological_target": "wild-type CXCL12 (Homo sapiens (Human)) (UniProt P48061)",
  "test": "translational diffusion measurements (Ds versus concentration, non-linear fit), 20 mM sodium phosphate pH 7.4; self-association",
  "data": [
    {"substance": "wild-type CXCL12 (from UniProt P48061 22-89) (ligand; other documents disagree on this pair)", "values": [
      {"measurement": "Kd", "value": 120, "unit": "µM"}
    ]}
  ]
}
